# Biological target: Protein G on µMACS Protein G microbeads (Group G Streptococci) (UniProt P06654)
# Experiment: immobilisation on µMACS Protein G microbeads
substance,measurement,value
"CD4-immunoglobulin G2 (CD4-IgG2), tetrameric CD4-based molecule (from UniProt P01730 26-204; P01730 26-203) (Fc fusion)",capacity of the microbeads (µg per ml of microbead suspension),40

# Source: US20080274134A1
